Consider 1 molecule from patent publication US20150166646A1, “Methods and Compositions for Treating or Diagnosing Melanoma” (The Wistar Institute of Anatomy and Biology, priority 2012, published 2015).

The experiment has as its system macrophages. Kind of experiment: Macrophage growth (WST-1) and cell death. As to conditions: 72 hours. In kind it is cell-based, human.

Each structure is given as a SMILES string.

In the case of `CCCS(=O)(=O)Nc1ccc(F)c(C(=O)c2c[nH]c3ncc(Cl)cc23)c1F` [PLX4720], the macrophage growth entry is “promotes macrophage growth”.
